Source: US20050202001A1 (priority 2002, published 2005)

How the values were obtained:
UACC-257 melanoma cells = assay: Melanin content (A405/A280) in UACC-257 melanoma cells; assay type: cell-based, human; settings: UACC-257, agent alone, 72 hours after treatment; toxins 0.1 μg/ml each, PD98059 20 μM, IBMX 200 μM (FIG. 2A)
MALME-3M melanoma cells = assay: Melanin content (A405/A280) in MALME-3M melanoma cells; assay type: cell-based, human; settings: agent alone, 72 hours after treatment, toxins 0.1 μg/ml each, PD98059 20 μM, IBMX 200 μM (FIG. 2B)

CC(C)CCc1nc2[nH]c(=O)[nH]c(=O)c2[nH]1
melanin production (UACC-257 melanoma cells): did not stimulate de novo melanin production
melanin production (MALME-3M melanoma cells): did not stimulate de novo melanin production
